Results as given in publication PMC6251811 (Acta Pharmaceutica Sinica. B, 2018).

Key:
Format in all cases: cell-based, human
IRF7 mRNA [1] = assay: IRF7 mRNA quantitative PCR in SH-SY5Y cells; conditions: IFN-α2a treatment for 1 h
IRF3 mRNA [2] = assay: IRF3 mRNA quantitative PCR in SH-SY5Y cells; conditions: IFN-α2a treatment for 1 h
SH-SY5Y cells = assay: CCK8 cytotoxicity assay in SH-SY5Y cells; conditions: IFN-α2a up to 800 IU/mL (data not shown)
IRF7 mRNA [3] = assay: IRF7 mRNA quantitative PCR in HEK-Blue IFNα/β cells; conditions: IFN-α2a treatment for 1 h
IRF3 mRNA [4] = assay: IRF3 mRNA quantitative PCR in HEK cells; conditions: IFN-α2a treatment for 1 h
[5] = test system: type-I interferon signaling pathway; assay: SEAP reporter gene assay in HEK-Blue IFNα/β cells stimulated with IFN-α2a; conditions: IFN-α2a titration 0.128 to 10,000 IU/mL

IFN-α2a: Recombinant human IFN-α2a produced by Escherichia coli expressing Cys24-Glu188; stimulus of the assays
IRF7 mRNA transcription level compared to untreated controls (IRF7 mRNA [1]): 2.69±0.26 folds | IRF3 mRNA level (IRF3 mRNA [2]): 1.03±0.04 folds | effect on cell viability (SH-SY5Y cells): did not affect cell viability | IRF7 mRNA transcription level compared to untreated controls (IRF7 mRNA [3]): 2.09±0.16 folds | IRF3 mRNA level (IRF3 mRNA [4]): 1.25±0.15 folds | EC80 of IFN-α2a [5]: 150 IU/mL
